This is a selection: effects in other tests are not listed, and their absence says nothing.
Assays:
[1] = Anti-apomorphine effect (ED50); type: in vivo, rat; details: p.o.; groups of 5-7 female rats
Acute toxicity (LD50) = details: female mouse, per os; Litchfield-Wilcoxon method

O=c1[nH]c2cc(F)ccc2n1C1CCN(C2CCC(c3ccc(F)cc3)(c3ccc(F)cc3)CC2)CC1
ED50, anti-apomorphine effect [1]: 0.14 mg/kg

O=c1[nH]c2cc(Cl)ccc2n1C1CCN(C2CCC(c3ccc(F)cc3)(c3ccc(F)cc3)CC2)CC1
ED50, anti-apomorphine effect [1]: 0.18 mg/kg | LD50 (Acute toxicity (LD50)): > 1000 mg/kg

O=c1[nH]c2cc(Cl)ccc2n1C1CCN(C2C=CC(c3ccc(F)cc3)(c3ccc(F)cc3)CC2)CC1 (stereo not drawn)
ED50, anti-apomorphine effect [1]: 0.51 mg/kg | LD50 (Acute toxicity (LD50)): ≥ 1000 mg/kg

O=c1[nH]c2cc(F)ccc2n1C1CCN(C2C=CC(c3ccc(F)cc3)(c3ccc(F)cc3)CC2)CC1 (stereo not drawn)
ED50, anti-apomorphine effect [1]: 0.17 mg/kg

Source: patent US4076821A (priority 1976, dated 1978)
